# Test system: SJSA-1
# Test: cells
# Details: Homo sapiens, SJSA-1, 16 h
compound,measurement,value
CC(C)(C)S(=O)(=O)C[C@H](C1CC1)N1C(=O)[C@@](C)(CC(=O)O)C[C@H](c2cccc(Cl)c2)[C@H]1c1ccc(Cl)c(F)c1,IC50,1.2 nM
